Apparent affinities of Ab-14 variants for a coronavirus HR2 peptide

The measurements come from Li et al. 2023 (doi:10.1038/s41467-023-39022-2) through the FLAb antibody collection.

Target: peptide PDVDLGDISGINAS, taken from heptad repeat 2 (HR2) of SARS-CoV-2 spike.

Parent scFv Ab-14: VH joined to VL by the linker GGGGSGGGGSGGGGS. Changes lie in the heavy chain CDRs alone.
VH: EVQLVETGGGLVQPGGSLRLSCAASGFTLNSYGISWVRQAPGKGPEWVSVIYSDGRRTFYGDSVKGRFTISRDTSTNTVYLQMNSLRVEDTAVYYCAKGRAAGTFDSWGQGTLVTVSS
VL: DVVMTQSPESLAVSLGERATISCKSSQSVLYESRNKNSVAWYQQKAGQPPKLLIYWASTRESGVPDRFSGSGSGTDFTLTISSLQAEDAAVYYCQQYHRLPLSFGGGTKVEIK

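The parent was found by panning a naive human phage display library on the peptide. These sequences belong to a second round, designed from the earlier measurements on random variants of the parent. Their group label is 14H_GPLM_Gibbs (GPLM: also part of the Gaussian process libraries; Gibbs: Gibbs sampling; a sequence that several methods proposed may carry one label only). The scFvs were displayed on barcoded MATa yeast, the peptide on MATalpha yeast. The frequency of each diploid, read from paired DNA barcodes, reflects how well the two displayed proteins bind. A regression on co-assayed BCL2-family reference pairs converts the normalised counts of each replicate to an apparent Kd. There are six technical replicates.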

Each variant is given by its three heavy chain CDRs, as the data file delimits them; those of the parent are GFTLNSYGIS, VIYSDGRRTFYGDSVK, GRAAGTFDS.
Affinities are written as log10 Kd with Kd in nM; a lower number is a better binder.
"n.d." marks a missing value. The strain was present, yet no cells mated with the target were sequenced in that replicate, which points to weak or no binding.

{"CDR-H1": "GFELNDYGIS", "CDR-H2": "VIYSDGRRTFYVDSVK", "CDR-H3": "GRTAGTFDS", "log10 Kd, replicates": "0.24 / 0.54 / 0.40 / 0.65 / 1.16 / 0.62", "control signals": "0/18"}
{"CDR-H1": "GFDLNMYGIS", "CDR-H2": "VIYSDGRRTFYGDSVK", "CDR-H3": "GQAAGTFDS", "log10 Kd, replicates": "0.63 / 0.16 / 0.07 / 0.35 / 0.14 / 0.49", "control signals": "0/18"}
{"CDR-H1": "GFSLNEYGIS", "CDR-H2": "VIYSDGRRTFYTDSVK", "CDR-H3": "GRQAGTFDS", "log10 Kd, replicates": "1.13 / 0.61 / 0.67 / 0.21 / 0.50 / 0.59", "control signals": "1/18 (2.48)"}
{"CDR-H1": "GFSLNSYGIS", "CDR-H2": "VIYSDGRRTFYGDSVK", "CDR-H3": "GLVAGTFDS", "log10 Kd, replicates": "0.12 / 0.09 / 0.10 / 0.18 / 0.08 / 0.57", "control signals": "1/18 (2.21)"}
{"CDR-H1": "GFTLNSYGIS", "CDR-H2": "VIYSDGQRTFYSDSVK", "CDR-H3": "GKEAGTFDS", "log10 Kd, replicates": "0.17 / -0.06 / -0.13 / 0.12 / -0.08 / -0.12", "control signals": "0/18"}
{"CDR-H1": "GFSLNSYGIS", "CDR-H2": "VIYSDGRRTFYGDSVK", "CDR-H3": "GRLAGTFDF", "log10 Kd, replicates": "0.63 / 0.14 / 0.12 / 0.71 / 0.05 / 0.55", "control signals": "1/18 (2.84)"}
{"CDR-H1": "GFTLNEYGIS", "CDR-H2": "VIYSDGRRTFYGDSVK", "CDR-H3": "GKVAGTFDT", "log10 Kd, replicates": "0.63 / 0.70 / 0.32 / 0.27 / 0.43 / 0.50", "control signals": "1/18 (1.72)"}
{"CDR-H1": "GFTLESYGIS", "CDR-H2": "VIYSDGRRTFYGDDVK", "CDR-H3": "GQAAGTFDS", "log10 Kd, replicates": "1.40 / 1.08 / 2.13 / n.d. / 1.21 / 1.92", "control signals": "0/18"}
{"CDR-H1": "GFDLNAYGIS", "CDR-H2": "VIYSDGRRTFYGDSVK", "CDR-H3": "GREAGTFDS", "log10 Kd, replicates": "0.21 / 0.11 / 0.25 / -0.03 / -0.04 / -0.08", "control signals": "0/18"}
{"CDR-H1": "GFTLNSYGIS", "CDR-H2": "VIYSDGRRTFYADSVK", "CDR-H3": "GHAAGTFDL", "log10 Kd, replicates": "1.23 / 1.47 / 0.79 / 2.47 / 1.54 / 1.98", "control signals": "1/18 (1.53)"}
{"CDR-H1": "GFWLNSYGIS", "CDR-H2": "VIYSDGRRTFYADSVK", "CDR-H3": "GRQAGTFDS", "log10 Kd, replicates": "1.43 / 1.42 / 1.40 / 1.79 / 1.24 / 1.32", "control signals": "1/18 (2.30)"}
{"CDR-H1": "GFSLNSYGIS", "CDR-H2": "VIYSDGRRTFYGDSVK", "CDR-H3": "GWVAGTFDT", "log10 Kd, replicates": "0.80 / 0.27 / 0.45 / 0.20 / 0.28 / 0.86", "control signals": "0/18"}
{"CDR-H1": "GFTLNSYGIS", "CDR-H2": "VIYSDGQRTFYSDSVK", "CDR-H3": "GRTAGTFDS", "log10 Kd, replicates": "0.56 / 0.30 / -0.07 / -0.02 / 0.23 / 0.24", "control signals": "1/18 (3.28)"}
{"CDR-H1": "GFELNSYGIS", "CDR-H2": "VIYSDGRRTFYIDSVK", "CDR-H3": "GNAAGTFDS", "log10 Kd, replicates": "0.38 / 0.30 / 0.30 / 0.18 / -0.10 / 0.42", "control signals": "0/18"}
{"CDR-H1": "GFDLNSYGIS", "CDR-H2": "VIYSDGRRTFYVDSVK", "CDR-H3": "GEAAGTFDS", "log10 Kd, replicates": "0.83 / 1.01 / 0.62 / 0.85 / 0.72 / 1.06", "control signals": "0/18"}
{"CDR-H1": "GFSLNSYGIS", "CDR-H2": "VIYSDGRRTFYDDSVK", "CDR-H3": "GKLAGTFDS", "log10 Kd, replicates": "n.d. / n.d. / n.d. / n.d. / n.d. / n.d.", "control signals": "0/18"}
{"CDR-H1": "GFELNSYGIS", "CDR-H2": "VIYSDGRRTFYGDSVK", "CDR-H3": "GRMAGTFDS", "log10 Kd, replicates": "2.35 / 1.64 / 1.28 / 0.89 / 1.94 / 1.73", "control signals": "1/18 (2.78)"}
{"CDR-H1": "GFTLNSYGIS", "CDR-H2": "VIYSDGKRTFYGDSVK", "CDR-H3": "GQAAGTFDL", "log10 Kd, replicates": "1.29 / 1.41 / 1.87 / 1.21 / 1.30 / 1.91", "control signals": "0/18"}
{"CDR-H1": "GFELNEYGIS", "CDR-H2": "VIYSDGRRTFYGDSVK", "CDR-H3": "GKQAGTFDS", "log10 Kd, replicates": "-0.41 / -0.64 / -0.41 / -0.68 / -0.12 / 0.01", "control signals": "0/18"}
{"CDR-H1": "GFSLNSYGIS", "CDR-H2": "VIYSDGRRTFYGDSVK", "CDR-H3": "GTEAGTFDS", "log10 Kd, replicates": "0.05 / 0.41 / 0.16 / 0.30 / 0.00 / 0.29", "control signals": "0/18"}
{"CDR-H1": "GFSLNSYGIS", "CDR-H2": "VIYSDGRRTFYADSVK", "CDR-H3": "GRMAGTFDT", "log10 Kd, replicates": "0.14 / 0.00 / 0.17 / 0.46 / 0.47 / -0.17", "control signals": "1/18 (0.60)"}
{"CDR-H1": "GFTLNSYGIS", "CDR-H2": "VIYSDGVRTFYSDSVK", "CDR-H3": "GRTAGTFDS", "log10 Kd, replicates": "0.27 / 0.02 / 0.06 / 0.16 / -0.02 / 0.14", "control signals": "0/18"}
{"CDR-H1": "GFSLNSYGIS", "CDR-H2": "VIYSDGRRTFYGDSVK", "CDR-H3": "GSAAGTFDT", "log10 Kd, replicates": "2.25 / 1.59 / 1.34 / 0.16 / 0.75 / 0.17", "control signals": "0/18"}
{"CDR-H1": "GFDLNSYGIS", "CDR-H2": "VIYSDGRRTFYGDSVK", "CDR-H3": "GRTAGTFDR", "log10 Kd, replicates": "n.d. / 1.08 / 1.06 / 0.85 / 1.74 / 1.67", "control signals": "0/18"}
{"CDR-H1": "GFSLNNYGIS", "CDR-H2": "VIYSDGRRTFYTDSVK", "CDR-H3": "GRQAGTFDS", "log10 Kd, replicates": "0.32 / 0.06 / 0.27 / 0.54 / 0.33 / 0.87", "control signals": "0/18"}

A sequence measured in both rounds can read differently, since the two assays cover different ranges.
As a blank, each scFv also met three strains without target: over all heavy chain designs, 1% of these pairings were detected, typically at 2.08 and seldom below 0.84. The control count says in how many pairings with the empty strains this scFv gave a signal, with their mean in brackets.
In the paper, a design with two or fewer of six values counts as a poor binder.
Of ten entries with the parent sequence, four were seen in most replicates (averages 0.34 to 2.37), three in one and three in none, so single entries are noisy.